Test results from US20120021068A1, “COMPOSITIONS FOR DECONTAMINATION” (published 2012).

What was measured:
[1] = Active chlorine concentration by standard titration; conditions: 1.5% (weight/volume) added to gel from 3M CaCl2 / 6M ZnCl2 solution and 3% hypochlorite bleach, 1:19
[2] = Determination of gel formation and thixotropy by visual inspection; conditions: gel from 3M CaCl2 / 6M ZnCl2 solution and 3% hypochlorite bleach, 1:19
pH of bleach and gels = conditions: immediately upon addition

Ca(OCl)2
effect of added solid hypochlorite salt on active chlorine concentration of the gel [1]: elevated the active chlorine concentrations
effect of reactivation with solid hypochlorite salt on gel consistency [2]: did not noticeably affect the consistency of the gel

Zinc chloride
pH of 3% hypochlorite bleach after addition (pH of bleach and gels): approximately 5
